Data from ChEMBL document CHEMBL3856290, “Discovery of TAK-272: A Novel, Potent, and Orally Active Renin Inhibitor” (ACS Med Chem Lett, 2016).
Structures can show the parent of a compound that is named as a salt.

The chains behind the UniProt entries cited, without tags or fusion partners. Where a name states a change or a piece, a line headed by the entry shows the natural chain unless it says otherwise.
UniProt P00797: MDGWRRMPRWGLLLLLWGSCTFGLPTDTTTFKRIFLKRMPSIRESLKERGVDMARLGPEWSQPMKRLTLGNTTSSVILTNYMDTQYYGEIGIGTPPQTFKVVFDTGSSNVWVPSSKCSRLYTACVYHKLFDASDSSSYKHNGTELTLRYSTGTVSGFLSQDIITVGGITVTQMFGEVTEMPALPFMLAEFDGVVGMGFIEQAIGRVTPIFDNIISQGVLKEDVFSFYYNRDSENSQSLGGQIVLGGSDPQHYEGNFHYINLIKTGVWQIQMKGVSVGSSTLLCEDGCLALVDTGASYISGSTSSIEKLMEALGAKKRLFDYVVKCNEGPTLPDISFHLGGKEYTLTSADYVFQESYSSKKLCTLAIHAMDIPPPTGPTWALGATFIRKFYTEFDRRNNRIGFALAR

Biological target: Renin (Homo sapiens, UniProt P00797)
Assay: Inhibition of renin in human plasma by radioimmunoassay
Format: cell-free

IC50: 2.1 nM
Compound: COCCCCn1c(C(=O)N(CC(C)C)[C@@H]2CNC[C@H](C(=O)N3CCOCC3)C2)nc2ccccc21 [IMARIKIREN HYDROCHLORIDE]
